## Yeast mating assay B: variants of the scFv Ab-14

Source: Li et al. 2023 (doi:10.1038/s41467-023-39022-2), MIT Lincoln Laboratory and A-Alpha Bio; data file from the FLAb repository.

Target: peptide PDVDLGDISGINAS, taken from heptad repeat 2 (HR2) of SARS-CoV-2 spike.

Each scFv is VH, a 15-residue (Gly4Ser)3 linker, VL, as in the parent Ab-14, and differs from it in the CDRs of the heavy chain only.
VH: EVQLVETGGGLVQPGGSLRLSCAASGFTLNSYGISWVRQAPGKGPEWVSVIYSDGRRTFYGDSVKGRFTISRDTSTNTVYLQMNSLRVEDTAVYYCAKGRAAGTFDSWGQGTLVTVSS
VL: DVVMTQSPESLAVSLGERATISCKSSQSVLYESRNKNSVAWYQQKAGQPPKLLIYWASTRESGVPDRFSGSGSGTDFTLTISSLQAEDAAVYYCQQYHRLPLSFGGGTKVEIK

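These sequences belong to a second round, designed from the earlier measurements on random variants of the parent. Several design methods are mixed in this list. AlphaSeq pools MATa yeast showing the antibodies with MATalpha yeast showing the peptide. Binding brings cells together so that they mate, and sequencing counts the barcode pairs among the diploids. Scores were corrected for input abundance and mapped to Kd with protein pairs of known affinity run in the same pool. There are six technical replicates.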

Each variant is given by its three heavy chain CDRs, as the data file delimits them; those of the parent are GFTLNSYGIS, VIYSDGRRTFYGDSVK, GRAAGTFDS. Values are log10 of the apparent Kd in nM; lower means stronger binding. A mean of the replicates is given; it leaves out those without a signal. Where no diploid with the target was found in any replicate, the entry reads "nd": below detection, most likely a poor binder, though not proof of it.

Read-out -0.88 (6 of 6 replicates; controls 0 of 18), from GFNLGEYGIS / VIYADGKRTAYSWSVK / GNSAGTFNH.
Read-out 0.71 (6 of 6 replicates; controls 0 of 18), from GFDLNSYGIS / VIYSDGRRTFYGDSVK / GKHAGTFDS.
Read-out -0.56 (6 of 6 replicates; controls 0 of 18), from GFDLEEYGIS / VIYADGQRTAYADSVK / GNVAGTFDI.
Read-out 0.76 (6 of 6 replicates; controls 0 of 18), from MFSLNDYGIS / VIYSDGRRTFYGDSVK / GRTAGTFDS.
Read-out 0.21 (6 of 6 replicates; controls 0 of 18), from GFDLNEYGIS / VIYADGMRTFYSDSVK / GEVAGTFVS.
Read-out nd (0 of 6 replicates; controls 0 of 18), from GEDLLEYGIS / VIYADGIRVMYQNQVK / GNVAGFFTL.
Read-out -0.50 (6 of 6 replicates; controls 0 of 18), from GFDLNEYGIS / VIYADGVRTAYADSVK / GKNAGTFDI.
Read-out 1.30 (3 of 6 replicates; controls 0 of 18), from GFNLNSYGIS / VIYSDGRRTFYGDSVK / GRQAGTFDN.
Read-out -0.62 (6 of 6 replicates; controls 0 of 18), from GFDLEEYGIS / VIYADGMRTAYADSVK / GNTAGTFDV.
Read-out nd (0 of 6 replicates; controls 0 of 18), from GFTLNKYGIS / VIYSDGRRTFYGDSVK / GREATTFDS.
Read-out -0.69 (6 of 6 replicates; controls 0 of 18), from GFDLNEYGIS / VIYADGRRTFYTDSVK / GANAGTFDQ.
Read-out nd (0 of 6 replicates; controls 1 of 18), from GFDLNSYGIS / VIYSDGRRTFYGDSVK / GRAAGMFDS.
Read-out 0.56 (2 of 12 replicates; controls 0 of 36), from GFSLNSYGIS / VIYSDGRRTFYGDSVK / GEAAGTFDS.
Read-out -0.42 (6 of 6 replicates; controls 0 of 18), from GFDLNEYGIS / VIYADGKRQAYADSVK / GNVAGTFDL.
Read-out nd (0 of 6 replicates; controls 0 of 18), from GFTLNNYGIS / VIYSDGHRTFYGDKVK / GRNAGTFDS.
Read-out nd (0 of 6 replicates; controls 0 of 18), from GEDLDEYGIS / VIYADGQRTAYDESVK / GTIAGSFFH.
Read-out nd (0 of 6 replicates; controls 0 of 18), from GFTLNEYGIS / VIYSDGRRTFYGDSVK / GRAAGTFKQ.
Read-out 1.76 (3 of 6 replicates; controls 0 of 18), from GFWLNEYGIS / VIYSDGRRTFYGDSVK / GQAAGTFDK.
Read-out 0.73 (6 of 6 replicates; controls 0 of 18), from GFPLNEYGIS / VIYSDGRRTFYGDSVK / GRSAGTFDT.
Read-out 0.63 (6 of 6 replicates; controls 0 of 18), from GFWLNDYGIS / VIYADGRRTFYGDSVK / GQAAGTFDS.
Read-out -0.64 (6 of 6 replicates; controls 0 of 18), from GFDLDEYGIS / VIYADGRRTFYADSVK / GSTAGTFDV.
Read-out nd (0 of 6 replicates; controls 0 of 18), from GFDLNSYGIS / VIYSDGRRTFYGDSVK / GRAADTTIL.
Read-out 0.76 (1 of 6 replicates; controls 0 of 18), from GFNLNSYGIS / VIYSDGRRTFYKDSVK / GQNAGTFDS.
Read-out 0.07 (6 of 6 replicates; controls 0 of 18), from GFSLNSYGIS / VIYSDGRRTFYSDSVK / GMAAGTFDS.
Read-out -0.56 (6 of 6 replicates; controls 0 of 18), from GFSLNDYGIS / VIYSDGRRTFYIDSVK / GNAAGTFDS.
Read-out 0.46 (6 of 6 replicates; controls 0 of 18), from GFSLNSYGIS / VIYSDGRRTFYKDSVK / GQVAGTFDS.
Read-out nd (0 of 6 replicates; controls 0 of 18), from GFELNSYGIS / VIYRDGRRTFYGDSVK / GEAAGTFPS.
Read-out 0.37 (6 of 6 replicates; controls 0 of 18), from GFDLNEYGIS / VIYADGRRTYYADSVK / GNNAGTFDI.
Read-out nd (0 of 6 replicates; controls 0 of 18), from GFNLKEYGIS / VIYADGVRAQYAHSVK / GTYSGKFGM.
Read-out 0.86 (3 of 6 replicates; controls 0 of 18), from GFTLNEYGIS / VIYSDGRRTWYTDSVK / GRFAGTFDS.
Read-out nd (0 of 6 replicates; controls 0 of 18), from GFDLNEYGIS / VIYADGRRTFYSDSVK / GENAGFFDE.
Read-out -0.18 (5 of 6 replicates; controls 1 of 18), from GFNLDEYGIS / VIYADGKRTFYQDSVK / GEVAGTFDV.
Read-out -0.19 (6 of 6 replicates; controls 0 of 18), from GFDLNEYGIS / VIYADGRRTFYADSVK / GANAGTFDS.
Read-out 3.91 (1 of 6 replicates; controls 0 of 18), from GFDLDEYGIS / VIYADGRRVVYQDQVK / GELAGTVDQ.
Read-out -0.18 (6 of 6 replicates; controls 1 of 18), from GFDLNEYGIS / VIYADGRRTFYADSVK / GEAGGTFDI.
Read-out 0.41 (5 of 6 replicates; controls 0 of 18), from GFDLNSYGIS / VIYSDGRRTFYADSVK / GRQAGTFDD.
Read-out -0.32 (6 of 6 replicates; controls 1 of 18), from GFDLEDYGIS / VIYADGMRTFYADSVK / GNVAGTFDS.
Read-out nd (0 of 6 replicates; controls 0 of 18), from GFTLNSYGIS / VIYSDGRRTFYGDSVK / GRAAGTFDP.
Read-out 0.02 (6 of 6 replicates; controls 0 of 18), from GFSLNSYGIS / VIYSDGRRTFYADTVK / GRTAGTFDS.
Read-out nd (0 of 6 replicates; controls 1 of 18), from GFGLDEYGIS / VIYADGMRAQYATNVK / GYEAGVFST.

Extract of 6 entries:

With GFDLEEYGIS / VIYADGMRTAYADSVK / GNTAGTFDV the result was -0.62 (6 of 6 replicates; controls 0 of 18).
With GFDLEDYGIS / VIYADGMRTFYADSVK / GNVAGTFDS the result was -0.32 (6 of 6 replicates; controls 1 of 18).
With GFDLNSYGIS / VIYSDGRRTFYGDSVK / GRAADTTIL the result was nd (0 of 6 replicates; controls 0 of 18).
With GFTLNEYGIS / VIYSDGRRTFYGDSVK / GRAAGTFKQ the result was nd (0 of 6 replicates; controls 0 of 18).
With GFSLNSYGIS / VIYSDGRRTFYKDSVK / GQVAGTFDS the result was 0.46 (6 of 6 replicates; controls 0 of 18).
With GFDLDEYGIS / VIYADGRRTFYADSVK / GSTAGTFDV the result was -0.64 (6 of 6 replicates; controls 0 of 18).

The parent sequence was in this pool as ten entries: three were never detected, three once, and four in most replicates, with averages from 0.34 to 2.37. A sequence measured in both rounds can read differently, since the two assays cover different ranges. Background: pairings of all heavy chain designs with three empty control strains gave a value in 1% of cases (median 2.08, 5th percentile 0.84). Values in that range, when seen in few replicates, are hard to tell from nonspecific mating. For each scFv, signals with the empty controls are counted beside the result. The authors averaged sequences with at least three values out of six and counted those with two or fewer as poor binders. Where one sequence has several entries in the source, the replicates are pooled.